Results: US20030232839A1, “Treatment of sleeping disorders using CNS sleep target modulators” (Hypnion, Inc., priority 2002, published 2003)

Tested on: Male Wistar rats
Assay: SCORE-2000 sleep-wake assay (EEG/EMG, locomotor activity, body temperature)
Details: 30 mg/kg

Disproportional Motor Inhibition: None | Rebound Insomnia: None
SMILES: O=C(OC1CCCC1)C1CN(CCCn2nc3ccccn3c2=O)CCN1c1cccc(Cl)c1 (stereo not drawn) [HY-2725]
Body Temp (CV) Adverse Event: No
